The data set concerns THP-1 cells. Conditions: IMMP 10^−10 M where added.

Read-outs that look alike come from different tables or passages of the source.

As to Cortisone, the “Cell Viability (% with respect to the control)” value by setting is: (cortisone 10^−6) 65 ± 5 %; (cortisone 10^−7) 70 ± 7 %; (cortisone 10^−8) 80 ± 6 %.
